This note sets out measurements from patent publication US20260274894A1, “CYCLIC POLYPEPTIDE COMPOUND AND USE THEREOF” (BIVISION PHARMACEUTICALS, INC., priority 2023, published 2026).

A short description of data set [1]: Biodistribution of ^177Lu-labeled compound in tumor-bearing mice. Format: in vivo. Conditions: Balb/c Nude, mouse, iv, 3.7 MBq/mouse, total radioactivity. On the procedure: Tissue distribution in FAP-positive tumor-bearing mice: […] […] The samples were measured on the day of collection.
Data set [2] is described as follows: Animal body weight after injection of ^177Lu-labeled compound. The procedure: 6- to 8-week-old (Balb/c Nude) mice were subcutaneously inoculated on the right scapula with 2×10^6 cells of HT1080 2 # (50% o Matrigel, Corning). When the tumors grew to the size as required by the assay, the animals were randomly assigned to 13 experimental groups based on tumor volume, with 5 animals per group. The body weight and tumor size were measured. On the day of grouping, administration was initiated for the control group (normal saline) and groups 1-12. General health and appearance were observed daily after the experiment began. Body weight and tumor size were measured prior to each sample collection time point. Any abnormal observations found during the entire study period were required to be recorded in the raw data.

Where [3] appears, read: in vivo, Distribution in tumor-bearing mice, Blood.
[4] abbreviates: in vivo, Distribution in tumor-bearing mice, Kidney.
[5] abbreviates: in vivo, Distribution in tumor-bearing mice, Liver.
Where [6] appears, read: in vivo, Distribution in tumor-bearing mice, Muscle.
Where [7] appears, read: in vivo, Distribution in tumor-bearing mice, Tumor.

SMILES strings stand for the structures. Like-named read-outs stand apart in the source and are kept apart here.

For the molecule `CCCCNC(=O)N[C@H]1CSCc2cccc(c2)CSC[C@@H](C(=O)N[C@H](CC(=O)O)CC(=O)NCCNC(=O)CN2CCN(C(=O)CN3CCN(CC(=O)O)CCN(CC(=O)O)CCN(CC(=O)O)CC3)CC2)NC(=O)[C@H](CC2CCCCC2)NC(=O)[C@H](CCC(N)=O)NC(=O)[C@H]([C@@H](C)O)NC(=O)[C@@H]2CCCN2C(=O)C2CN(C2)C1=O` (single isomer, unassigned) [^177Lu-JHDC42, metal not drawn], the tissue uptake at 24 h in data set [1] (setting [3]) amounted to 0.96 ± 0.113 %ID/g; in data set [1] (setting [4]) it was 3.62 ± 0.385 %ID/g; in data set [1] (setting [5]) it was 3.79 ± 0.198 %ID/g; in data set [1] (setting [6]), 1.75 ± 0.0919 %ID/g; in data set [1] (setting [7]), 18.4 ± 2.72 %ID/g.

As to `CCCCNC(=O)N[C@H]1CSCc2cccc(c2)CSCC(C(=O)N[C@@H](CCNC(=O)CCCCCCCNC(=O)CN2CCN(CC(=O)O)CCN(CC(=O)O)CCN(CC(=O)O)CC2)C(=O)O)NC(=O)[C@H](CC2CCCCC2)NC(=O)[C@H](CCC(N)=O)NC(=O)[C@H]([C@@H](C)O)NC(=O)C2CCCN2C(=O)C2CN(C2)C1=O` (some centres unmarked) [^177Lu-JHDC53, metal not drawn], the tissue uptake at 24 h in data set [1] (setting [3]) was found to be 0.585 ± 0.046 %ID/g; in data set [1] (setting [4]), 3.21 ± 0.184 %ID/g; in data set [1] (setting [5]), 2.1 ± 0.0672 %ID/g; in data set [1] (setting [6]), 1.73 ± 0.0141 %ID/g; in data set [1] (setting [7]), 16.8 ± 2.84 %ID/g.

For `CCCCNC(=O)N[C@H]1CSCc2cncc(c2)CSC[C@@H](C(=O)N[C@@H](CCC(=O)NCCN2CCN(C(=O)CN3CCN(CC(=O)O)CCN(CC(=O)O)CCN(CC(=O)O)CC3)CC2)C(=O)O)NC(=O)[C@H](CC2CCCCC2)NC(=O)[C@H](CCC(N)=O)NC(=O)[C@H]([C@@H](C)O)NC(=O)[C@@H]2CCCN2C(=O)C2CN(C2)C1=O` (single isomer, unassigned) [^177Lu-JHDC46, metal not drawn], the tissue uptake at 24 h was determined as 0.05 %ID/g in data set [1] (setting [3]); 3.77 ± 0.173 %ID/g in data set [1] (setting [4]); 3.23 ± 0.371 %ID/g in data set [1] (setting [5]); 1.72 ± 0.152 %ID/g in data set [1] (setting [6]); 23.2 ± 4.74 %ID/g in data set [1] (setting [7]).

For the molecule `CCCCCC(=O)N[C@H]1CSCc2cc(CSCCNC(=O)CN3CCN(CC(=O)O)CCN(CC(=O)O)CCN(CC(=O)O)CC3)cc(c2)CSC[C@@H](C(=O)O)NC(=O)[C@H](Cc2ccccc2)NC(=O)[C@H](CCC(N)=O)NC(=O)[C@H]([C@@H](C)O)NC(=O)[C@@H]2CCCN2C(=O)[C@@H]2CCCN2C1=O` [^177Lu-FAP-2286, metal not drawn, reference compound], the tissue uptake at 24 h in data set [1] (blood, 24 h after tail vein injection, read-out: Distribution in tumor-bearing mice, Blood) came out at 0.015 ± 0.0035 %ID/g; in data set [1] (kidney, 24 h after tail vein injection, read-out: Distribution in tumor-bearing mice, Kidney), 3.21 ± 0.148 %ID/g; in data set [1] (liver, 24 h after tail vein injection, read-out: Distribution in tumor-bearing mice, Liver), 0.145 ± 0.0106 %ID/g; in data set [1] (muscle, 24 h after tail vein injection, read-out: Distribution in tumor-bearing mice, Muscle), 0.04 %ID/g; in data set [1] (tumor, 24 h after tail vein injection, read-out: Distribution in tumor-bearing mice, Tumor) it was 5.78 ± 2.17 %ID/g. Also, the “Animal body weight” value amounted to 14.67 ± 0.37 g in data set [2] (Day 0); 16.10 ± 0.85 g in data set [2] (Day 2); 15.60 ± 0.49 g in data set [2] (Day 6); 15.87 ± 0.68 g in data set [2] (Day 9); 16.23 ± 0.92 g in data set [2] (Day 13); 17.07 ± 1.02 g in data set [2] (Day 16).

Consider `CCCCNC(=O)N[C@H]1CSCc2cccc(c2)CSC[C@@H](C(=O)N[C@@H](CCC(=O)NCCCN2CCN(C(=O)CN3CCN(CC(=O)O)CCN(CC(=O)O)CCN(CC(=O)O)CC3)CC2)C(=O)O)NC(=O)[C@H](Cc2ccccc2)NC(=O)[C@H](CCC(N)=O)NC(=O)[C@H]([C@@H](C)O)NC(=O)[C@@H]2CCCN2C(=O)C2CN(C2)C1=O` [^177Lu-JHDC48, metal not drawn], for which the tissue uptake at 24 h stood at 0.965 ± 0.0247 %ID/g in data set [1] (setting [3]); 1.9 %ID/g in data set [1] (setting [4]); 2.46 ± 0.102 %ID/g in data set [1] (setting [5]); 2.44 ± 0.325 %ID/g in data set [1] (setting [6]); 15.1 ± 0.65 %ID/g in data set [1] (setting [7]).

Regarding `CCCCCC(=O)N[C@H]1CSCc2cccc(c2)CSC[C@@H](C(=O)N[C@@H](CCNC(=O)CCCCCCCNC(=O)CN2CCN(CC(=O)O)CCN(CC(=O)O)CCN(CC(=O)O)CC2)C(=O)O)NC(=O)[C@H](CC2CCCCC2)NC(=O)[C@H](CCC(N)=O)NC(=O)[C@H]([C@@H](C)O)NC(=O)[C@@H]2CCCN2C(=O)C2CN(C2)C1=O` [^177Lu-JHDC52, metal not drawn], the tissue uptake at 24 h in data set [1] (setting [3]) came out at 0.06 %ID/g; in data set [1] (setting [4]) it was 6.715 ± 0.0601 %ID/g; in data set [1] (setting [5]) it was 0.74 ± 0.0495 %ID/g; in data set [1] (setting [6]) it was 0.335 ± 0.0177 %ID/g; in data set [1] (setting [7]) it was 7.76 ± 0.629 %ID/g.

For `CCCCNC(=O)N[C@H]1CSCc2cccc(c2)CSCC(C(=O)N[C@@H](CCNC(=O)CNC(=O)CN2CCN(CC(=O)O)CCN(CC(=O)O)CCN(CC(=O)O)CC2)C(=O)O)NC(=O)[C@H](CC2CCCCC2)NC(=O)[C@H](CCC(N)=O)NC(=O)[C@H]([C@@H](C)O)NC(=O)[C@@H]2CCCN2C(=O)C2CN(C2)C1=O` (single isomer, unassigned) [^177Lu-JHDC56, metal not drawn], the tissue uptake at 24 h in data set [1] (setting [3]) turned out to be 0.075 ± 0.0035 %ID/g; in data set [1] (setting [4]) it was 3.08 ± 0.237 %ID/g; in data set [1] (setting [5]) it was 0.845 ± 0.0672 %ID/g; in data set [1] (setting [6]), 0.345 ± 0.0035 %ID/g; in data set [1] (setting [7]), 16.8 ± 3.08 %ID/g.

As to `CCCCNC(=O)N[C@H]1CSCc2cccc(c2)CSCC(C(=O)N[C@@H](CNC(=O)CN2CCN(C(=O)CN3CCN(CC(=O)O)CCN(CC(=O)O)CCN(CC(=O)O)CC3)CC2)C(=O)O)NC(=O)[C@H](CC2CCCCC2)NC(=O)[C@H](CCC(N)=O)NC(=O)[C@H]([C@@H](C)O)NC(=O)C2CCCN2C(=O)C2CN(C2)C1=O` (some centres unmarked) [^177Lu-JHDC47, metal not drawn], the tissue uptake at 24 h in data set [1] (setting [3]) worked out at 0.445 ± 0.0318 %ID/g; in data set [1] (setting [4]), 3.905 ± 0.0035 %ID/g; in data set [1] (setting [5]), 2.1 ± 0.0141 %ID/g; in data set [1] (setting [6]), 0.67 ± 0.099 %ID/g; in data set [1] (setting [7]), 16.4 ± 1.38 %ID/g. Further, the “Animal body weight” value is recorded as 15.20 ± 0.38 g in data set [2] (Day 0); 15.87 ± 0.33 g in data set [2] (Day 6); 15.33 ± 0.41 g in data set [2] (Day 9); 16.73 ± 0.40 g in data set [2] (Day 13); 17.43 ± 0.48 g in data set [2] (Day 16).

Regarding `CCCCNC(=O)N[C@H]1CSCc2cccc(c2)CSCC(C(=O)N[C@@H](CCNC(=O)CCCNC(=O)CN2CCN(CC(=O)O)CCN(CC(=O)O)CCN(CC(=O)O)CC2)C(=O)O)NC(=O)[C@H](CC2CCCCC2)NC(=O)[C@H](CCC(N)=O)NC(=O)[C@H]([C@@H](C)O)NC(=O)[C@@H]2CCCN2C(=O)C2CN(C2)C1=O` (some centres unmarked) [^177Lu-JHDC55, metal not drawn], the tissue uptake at 24 h is 0.46 ± 0.0141 %ID/g in data set [1] (setting [3]); 3.14 ± 0.205 %ID/g in data set [1] (setting [4]); 1.69 ± 0.0566 %ID/g in data set [1] (setting [5]); 1.25 ± 0.0566 %ID/g in data set [1] (setting [6]); 16 ± 0.817 %ID/g in data set [1] (setting [7]).
